System: zebrafish embryos
Settings: pre-exposure to the modulator at MTC

With `CC(=O)N[C@@H](CS)C(=O)O` [N-acetyl-L-cysteine] the “Shift of the LPS lethality concentration–effect curve” value (then LPS, versus LPS alone) was “shifted the lethality concentration–effect curves significantly”, the “Shift of the TCHQ concentration–response curves for lethality and dysmorphogenesis” value (then TCHQ, versus TCHQ alone) was “significantly shifted to higher concentrations of TCHQ” and the “Shift of the tBOOH concentration–response curves (lethality and dysmorphogenesis)” value (then tBOOH, versus tBOOH alone) was “significantly drifted the tBOOH concentration–response curves to higher concentrations”.
